Data from US11111252B2, “Pyrimidine compounds and pyrimido indole compounds and methods of use” (Duquesne University of the Holy Spirit, priority 2014, dated 2021).

Test system: NCl/ADR-RES
Assay: Effect of Pgp on drug sensitivity, Pgp overexpressing line (SRB assay)
Type: cell-based, human
Details: IC50 of Pgp overexpressing line divided by IC50 of parental line; cell SK-OV-3 MDR-1-6/6

COc1ccc(Sc2[nH]c3nc(N)nc(N)c3c2C)cc1OC
Rr: less than 1
